{"sequences": {"note": "Sequences of proteins named here, by UniProt entry; tags and fusion partners are left off.", "UniProt P43119, whole entry": "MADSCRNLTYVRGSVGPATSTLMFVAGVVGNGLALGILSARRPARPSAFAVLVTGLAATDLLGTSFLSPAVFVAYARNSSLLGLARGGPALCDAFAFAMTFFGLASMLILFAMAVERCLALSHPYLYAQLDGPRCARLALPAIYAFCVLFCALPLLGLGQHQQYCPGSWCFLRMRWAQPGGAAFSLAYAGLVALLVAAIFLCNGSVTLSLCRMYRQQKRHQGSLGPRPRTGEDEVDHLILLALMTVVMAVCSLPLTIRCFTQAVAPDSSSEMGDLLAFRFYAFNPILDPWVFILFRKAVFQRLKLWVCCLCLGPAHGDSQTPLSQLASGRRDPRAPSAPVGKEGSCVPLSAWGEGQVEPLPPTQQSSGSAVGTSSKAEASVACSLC", "UniProt P34995, whole entry": "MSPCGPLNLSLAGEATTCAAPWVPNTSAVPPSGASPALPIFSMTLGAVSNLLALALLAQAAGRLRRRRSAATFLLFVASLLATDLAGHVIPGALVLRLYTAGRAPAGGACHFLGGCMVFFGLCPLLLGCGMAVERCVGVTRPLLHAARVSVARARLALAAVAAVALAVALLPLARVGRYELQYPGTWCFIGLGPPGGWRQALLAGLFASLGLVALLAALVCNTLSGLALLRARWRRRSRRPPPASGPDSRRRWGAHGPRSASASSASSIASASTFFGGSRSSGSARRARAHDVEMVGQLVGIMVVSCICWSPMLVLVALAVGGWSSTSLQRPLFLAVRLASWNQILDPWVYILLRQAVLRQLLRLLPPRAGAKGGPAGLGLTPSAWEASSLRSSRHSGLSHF", "UniProt P43116, whole entry": "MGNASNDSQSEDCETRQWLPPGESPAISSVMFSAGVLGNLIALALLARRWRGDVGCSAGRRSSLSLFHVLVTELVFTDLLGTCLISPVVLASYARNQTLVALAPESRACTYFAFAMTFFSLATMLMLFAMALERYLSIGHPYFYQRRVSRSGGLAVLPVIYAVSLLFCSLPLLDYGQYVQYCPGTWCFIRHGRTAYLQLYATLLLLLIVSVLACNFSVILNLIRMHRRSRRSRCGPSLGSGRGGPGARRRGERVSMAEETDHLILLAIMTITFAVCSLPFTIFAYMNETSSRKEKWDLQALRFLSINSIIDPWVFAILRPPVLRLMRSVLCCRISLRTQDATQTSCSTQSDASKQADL", "UniProt P43115, whole entry": "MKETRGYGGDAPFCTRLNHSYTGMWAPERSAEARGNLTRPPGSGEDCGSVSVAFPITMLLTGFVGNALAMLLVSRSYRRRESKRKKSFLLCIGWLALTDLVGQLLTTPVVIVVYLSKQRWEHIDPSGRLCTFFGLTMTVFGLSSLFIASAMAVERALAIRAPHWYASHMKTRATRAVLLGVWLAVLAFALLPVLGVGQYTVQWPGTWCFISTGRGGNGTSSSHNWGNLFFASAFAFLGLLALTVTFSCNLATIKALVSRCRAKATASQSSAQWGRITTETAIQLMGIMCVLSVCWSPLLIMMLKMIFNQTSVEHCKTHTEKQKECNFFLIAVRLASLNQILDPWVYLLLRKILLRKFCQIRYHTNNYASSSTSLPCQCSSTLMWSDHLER", "UniProt P35408, whole entry": "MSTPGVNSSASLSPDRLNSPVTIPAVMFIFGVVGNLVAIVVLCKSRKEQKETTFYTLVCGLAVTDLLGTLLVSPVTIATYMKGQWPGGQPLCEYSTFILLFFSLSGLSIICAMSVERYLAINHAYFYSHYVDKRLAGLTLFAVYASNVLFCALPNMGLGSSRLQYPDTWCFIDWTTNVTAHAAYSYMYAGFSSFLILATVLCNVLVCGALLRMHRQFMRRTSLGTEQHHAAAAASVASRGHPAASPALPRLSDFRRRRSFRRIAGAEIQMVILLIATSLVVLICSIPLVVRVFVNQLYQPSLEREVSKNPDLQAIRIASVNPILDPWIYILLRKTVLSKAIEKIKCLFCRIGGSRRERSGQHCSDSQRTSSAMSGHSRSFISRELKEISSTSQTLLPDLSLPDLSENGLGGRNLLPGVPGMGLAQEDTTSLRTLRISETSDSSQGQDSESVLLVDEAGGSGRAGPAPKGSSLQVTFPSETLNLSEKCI", "UniProt Q13258, whole entry": "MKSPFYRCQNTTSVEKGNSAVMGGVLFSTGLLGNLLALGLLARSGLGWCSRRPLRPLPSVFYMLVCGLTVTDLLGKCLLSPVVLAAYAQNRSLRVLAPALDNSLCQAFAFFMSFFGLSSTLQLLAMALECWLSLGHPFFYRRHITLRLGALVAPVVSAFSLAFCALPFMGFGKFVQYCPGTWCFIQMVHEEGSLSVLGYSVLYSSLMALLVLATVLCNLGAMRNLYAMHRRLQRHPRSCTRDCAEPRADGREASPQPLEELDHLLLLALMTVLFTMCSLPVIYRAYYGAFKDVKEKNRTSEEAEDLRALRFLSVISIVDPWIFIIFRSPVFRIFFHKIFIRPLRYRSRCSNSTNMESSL", "UniProt P43088, whole entry": "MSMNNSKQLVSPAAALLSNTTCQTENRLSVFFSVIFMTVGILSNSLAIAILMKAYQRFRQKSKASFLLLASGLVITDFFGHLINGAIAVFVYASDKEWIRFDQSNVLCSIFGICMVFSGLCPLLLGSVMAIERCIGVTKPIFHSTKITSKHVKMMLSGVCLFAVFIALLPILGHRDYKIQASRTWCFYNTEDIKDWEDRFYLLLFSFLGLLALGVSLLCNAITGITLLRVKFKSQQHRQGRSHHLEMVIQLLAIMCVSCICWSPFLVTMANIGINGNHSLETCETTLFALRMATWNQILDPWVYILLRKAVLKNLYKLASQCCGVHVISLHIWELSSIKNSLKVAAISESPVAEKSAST", "UniProt P21731, whole entry": "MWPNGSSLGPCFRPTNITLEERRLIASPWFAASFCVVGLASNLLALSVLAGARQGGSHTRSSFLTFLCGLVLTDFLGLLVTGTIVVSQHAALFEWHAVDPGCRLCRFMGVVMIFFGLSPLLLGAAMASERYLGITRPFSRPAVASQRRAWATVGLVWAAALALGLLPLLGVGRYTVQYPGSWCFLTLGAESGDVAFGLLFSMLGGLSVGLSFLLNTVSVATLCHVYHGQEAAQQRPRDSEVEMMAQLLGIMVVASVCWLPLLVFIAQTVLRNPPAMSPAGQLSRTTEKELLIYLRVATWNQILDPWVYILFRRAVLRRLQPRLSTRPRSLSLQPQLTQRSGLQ"}, "source": "patent EP4840852A1", "about": "“DIPHENYLTRIAZINE COMPOUND, PREPARATION METHOD THEREFOR AND USE THEREOF” (dated 2026)", "key": {"IP": {"biological_target": "IP (Homo sapiens, UniProt P43119)", "assay": "Functional activity (HTRF cAMP / HTRF IP1) in cell line stably expressing IP receptor", "conditions": "read-out: absolute EC50; agonistic activation on IP target; initial test concentration 10000 nM"}, "EP1": {"biological_target": "EP1 (Homo sapiens, UniProt P34995)", "assay": "Functional activity (HTRF cAMP / HTRF IP1) in cell line stably expressing EP1 receptor", "conditions": "read-out: absolute EC50; agonistic activation on EP1 target; initial test concentration 10000 nM"}, "EP2": {"biological_target": "EP2 (Homo sapiens, UniProt P43116)", "assay": "Functional activity (HTRF cAMP / HTRF IP1) in cell line stably expressing EP2 receptor", "conditions": "read-out: absolute EC50; agonistic activation on EP2 target; initial test concentration 10000 nM"}, "EP3": {"biological_target": "EP3 (Homo sapiens, UniProt P43115)", "assay": "Functional activity (HTRF cAMP / HTRF IP1) in cell line stably expressing EP3 receptor", "conditions": "read-out: absolute EC50; agonistic activation on EP3 target; initial test concentration 10000 nM"}, "EP4": {"biological_target": "EP4 (Homo sapiens, UniProt P35408)", "assay": "Functional activity (HTRF cAMP / HTRF IP1) in cell line stably expressing EP4 receptor", "conditions": "read-out: absolute EC50; agonistic activation on EP4 target; initial test concentration 10000 nM"}, "DP": {"biological_target": "DP (Homo sapiens, UniProt Q13258)", "assay": "Functional activity (HTRF cAMP / HTRF IP1) in cell line stably expressing DP receptor", "conditions": "read-out: absolute EC50; agonistic activation on DP target; initial test concentration 10000 nM"}, "FP": {"biological_target": "FP (Homo sapiens, UniProt P43088)", "assay": "Functional activity (HTRF cAMP / HTRF IP1) in cell line stably expressing FP receptor", "conditions": "read-out: absolute EC50; agonistic activation on FP target; initial test concentration 10000 nM"}, "TP": {"biological_target": "TP (Homo sapiens, UniProt P21731)", "assay": "Functional activity (HTRF cAMP / HTRF IP1) in cell line stably expressing TP receptor", "conditions": "read-out: absolute EC50; agonistic activation on TP target; initial test concentration 10000 nM"}, "[1]": {"test_system": "Human pulmonary arterial smooth muscle cells (HPASMCs)", "assay": "PDGF-induced proliferation of pulmonary arterial smooth muscle cells (CellTiter-Glo)", "conditions": "read-out: IC50 for inhibiting PDGF-induced proliferation of pulmonary arterial smooth muscle cells; 20 ng/mL hPDGF-BB; CTG assay"}, "[2]": {"test_system": "rat pulmonary artery rings", "assay": "High-K+-induced tension of isolated pulmonary artery rings", "conditions": "read-out: half-maximal inhibitory concentration (IC50), high-K+-induced vasoconstriction of rat pulmonary arteries; N=5"}, "[3]": {"test_system": "Monocrotaline (MCT)-Induced Pulmonary Arterial Hypertension Rat Model", "assay": "Monocrotaline (MCT)-induced pulmonary arterial hypertension rat model"}, "SD rats": {"test_system": "SD rats", "assay": "4-week repeated dose toxicity and toxicokinetic study in rats", "conditions": "safety margin"}, "TA98 strain": {"test_system": "TA98 strain", "assay": "Bacterial reverse mutation assay with 6-well plate, TA98"}}, "note": "Values joined by “and” are separate entries in the source; they are usually repeats but may differ in a detail not shown here. Identical values can stand only once. Marks after values point to notes of the source that are not given here.", "data": [{"compound": "CC(C)N(CCCCOCC(=O)NS(C)(=O)=O)c1cnc(-c2ccccc2)c(-c2ccccc2)n1", "values": [{"measurement": "EC50", "setting": "IP", "result": 0.00027, "unit": "µM"}, {"measurement": "EC50", "setting": "EP1", "result": "> 10", "unit": "µM"}, {"measurement": "EC50", "setting": "EP2", "result": 9.75, "unit": "µM"}, {"measurement": "EC50", "setting": "EP3", "result": "> 10", "unit": "µM"}, {"measurement": "EC50", "setting": "EP4", "result": "> 10", "unit": "µM"}, {"measurement": "EC50", "setting": "DP", "result": 2.74, "unit": "µM"}, {"measurement": "EC50", "setting": "FP", "result": "> 10", "unit": "µM"}, {"measurement": "EC50", "setting": "TP", "result": "> 10", "unit": "µM"}, {"measurement": "IC50", "setting": "[1]", "result": 18.7, "unit": "µM"}, {"measurement": "IC50", "setting": "[2]", "result": 24, "unit": "µM"}, {"measurement": "reduction of right ventricular hypertrophy index", "setting": "[3]; 1 mg/kg, compared with model control group", "result": 26, "unit": "%"}, {"measurement": "effect on lung tissue lesions", "setting": "[3]; HE staining, Compound A 0.15, 0.5, 1.5 mg/kg, Selexipag 1 mg/kg, twice daily 19 days", "result": "a certain improving effect"}, {"measurement": "RVSP", "setting": "[3]; positive control 1 mg/kg oral gavage twice daily, 19 days", "result": "43.16±2.66", "unit": "mmHg"}, {"measurement": "Body Weight", "setting": "[3]; positive control 1 mg/kg oral gavage twice daily, D1", "result": "295.3 ± 19.2", "unit": "g"}, {"measurement": "Body Weight", "setting": "[3]; positive control 1 mg/kg oral gavage twice daily, D5", "result": "333.5 ± 18.1", "unit": "g"}, {"measurement": "Body Weight", "setting": "[3]; positive control 1 mg/kg oral gavage twice daily, D8", "result": "355.0±21.0* * g"}, {"measurement": "Body Weight", "setting": "[3]; positive control 1 mg/kg oral gavage twice daily, D12", "result": "376.7±25.0* ** g"}, {"measurement": "Body Weight", "setting": "[3]; positive control 1 mg/kg oral gavage twice daily, D15", "result": "383.5 ± 22.8", "unit": "g"}, {"measurement": "Body Weight", "setting": "[3]; positive control 1 mg/kg oral gavage twice daily, D19", "result": "408.2±26.6* * g"}, {"measurement": "Body Weight", "setting": "[3]; positive control 1 mg/kg oral gavage twice daily, D20", "result": "418.9±28.2* * g"}, {"measurement": "maximum reduction of RVSP", "setting": "[3]; positive control 1 mg/kg, compared with model control group", "result": 33, "unit": "%"}, {"measurement": "Medial Thickness Percentage", "setting": "[3]; pulmonary artery, positive control 1 mg/kg oral gavage twice daily, 19 days", "result": "0.36±0.07", "unit": "%"}, {"measurement": "RV/(LV+S)", "setting": "[3]; right ventricular hypertrophy index, positive control 1 mg/kg oral gavage twice daily, 19 days", "result": "33.85±8.32", "unit": "%"}, {"measurement": "NOAEL in rats relative to pharmacologically effective dose", "setting": "SD rats", "result": 6, "unit": "times"}, {"measurement": "Background lawn", "setting": "TA98 strain; TA98+S9, 8 µg/well (Table 8)", "result": "T0"}, {"measurement": "Reverse mutation colony Mean", "setting": "TA98 strain; TA98+S9, 8 µg/well (Table 8)", "result": 11}, {"measurement": "Reverse mutation colony Number per well", "setting": "TA98 strain; TA98+S9, 8 µg/well (Table 8)", "result": "12 and 10"}, {"measurement": "Background lawn", "setting": "TA98 strain; TA98+S9, 16 µg/well (Table 8)", "result": "T0"}, {"measurement": "Reverse mutation colony Mean", "setting": "TA98 strain; TA98+S9, 16 µg/well (Table 8)", "result": 10}, {"measurement": "Reverse mutation colony Number per well", "setting": "TA98 strain; TA98+S9, 16 µg/well (Table 8)", "result": "9 and 11"}, {"measurement": "Background lawn", "setting": "TA98 strain; TA98+S9, 31 µg/well (Table 8)", "result": "T0"}, {"measurement": "Reverse mutation colony Mean", "setting": "TA98 strain; TA98+S9, 31 µg/well (Table 8)", "result": 9}, {"measurement": "Reverse mutation colony Number per well", "setting": "TA98 strain; TA98+S9, 31 µg/well (Table 8)", "result": "8 and 10"}, {"measurement": "Background lawn", "setting": "TA98 strain; TA98+S9, 63 µg/well (Table 8)", "result": "T0"}, {"measurement": "Reverse mutation colony Mean", "setting": "TA98 strain; TA98+S9, 63 µg/well (Table 8)", "result": 8.5}, {"measurement": "Reverse mutation colony Number per well", "setting": "TA98 strain; TA98+S9, 63 µg/well (Table 8)", "result": "8 and 9"}, {"measurement": "Background lawn", "setting": "TA98 strain; TA98+S9, 125 µg/well (Table 8)", "result": "T0"}, {"measurement": "Reverse mutation colony Mean", "setting": "TA98 strain; TA98+S9, 125 µg/well (Table 8)", "result": 6.5}, {"measurement": "Reverse mutation colony Number per well", "setting": "TA98 strain; TA98+S9, 125 µg/well (Table 8)", "result": "7 and 6"}, {"measurement": "Background lawn", "setting": "TA98 strain; TA98+S9, 250 µg/well (Table 8)", "result": "T1"}, {"measurement": "Reverse mutation colony Mean", "setting": "TA98 strain; TA98+S9, 250 µg/well (Table 8)", "result": 5.5}, {"measurement": "Reverse mutation colony Number per well", "setting": "TA98 strain; TA98+S9, 250 µg/well (Table 8)", "result": "6 and 5"}, {"measurement": "Background lawn", "setting": "TA98 strain; TA98+S9, 500 µg/well (Table 8)", "result": "T3"}, {"measurement": "Background lawn", "setting": "TA98 strain; TA98+S9, 1000 µg/well (Table 8)", "result": "T4"}, {"measurement": "Background lawn", "setting": "TA98 strain; TA98-S9, 8 µg/well (Table 8)", "result": "T0"}, {"measurement": "Reverse mutation colony Mean", "setting": "TA98 strain; TA98-S9, 8 µg/well (Table 8)", "result": 5.5}, {"measurement": "Reverse mutation colony Number per well", "setting": "TA98 strain; TA98-S9, 8 µg/well (Table 8)", "result": "5 and 6"}, {"measurement": "Background lawn", "setting": "TA98 strain; TA98-S9, 16 µg/well (Table 8)", "result": "T0"}, {"measurement": "Reverse mutation colony Mean", "setting": "TA98 strain; TA98-S9, 16 µg/well (Table 8)", "result": 4.5}, {"measurement": "Reverse mutation colony Number per well", "setting": "TA98 strain; TA98-S9, 16 µg/well (Table 8)", "result": "4 and 5"}, {"measurement": "Background lawn", "setting": "TA98 strain; TA98-S9, 31 µg/well (Table 8)", "result": "T0"}, {"measurement": "Reverse mutation colony Mean", "setting": "TA98 strain; TA98-S9, 31 µg/well (Table 8)", "result": 5.5}, {"measurement": "Reverse mutation colony Number per well", "setting": "TA98 strain; TA98-S9, 31 µg/well (Table 8)", "result": "7 and 4"}, {"measurement": "Background lawn", "setting": "TA98 strain; TA98-S9, 63 µg/well (Table 8)", "result": "T0"}, {"measurement": "Reverse mutation colony Mean", "setting": "TA98 strain; TA98-S9, 63 µg/well (Table 8)", "result": 5.5}, {"measurement": "Reverse mutation colony Number per well", "setting": "TA98 strain; TA98-S9, 63 µg/well (Table 8)", "result": "6 and 5"}, {"measurement": "Background lawn", "setting": "TA98 strain; TA98-S9, 125 µg/well (Table 8)", "result": "T0"}, {"measurement": "Reverse mutation colony Mean", "setting": "TA98 strain; TA98-S9, 125 µg/well (Table 8)", "result": 4.5}, {"measurement": "Reverse mutation colony Number per well", "setting": "TA98 strain; TA98-S9, 125 µg/well (Table 8)", "result": "5 and 4"}, {"measurement": "Background lawn", "setting": "TA98 strain; TA98-S9, 250 µg/well (Table 8)", "result": "T2"}, {"measurement": "Reverse mutation colony Mean", "setting": "TA98 strain; TA98-S9, 250 µg/well (Table 8)", "result": 2.5}, {"measurement": "Reverse mutation colony Number per well", "setting": "TA98 strain; TA98-S9, 250 µg/well (Table 8)", "result": "3 and 2"}, {"measurement": "Background lawn", "setting": "TA98 strain; TA98-S9, 500 µg/well (Table 8)", "result": "T3"}, {"measurement": "Background lawn", "setting": "TA98 strain; TA98-S9, 1000 µg/well (Table 8)", "result": "T4"}, {"measurement": "final concentration at which a reduction in background lawn was observed", "setting": "TA98 strain; TA98 strain, ±S9", "result": "not less than 250 µg per well"}, {"measurement": "final concentration at which non-interfering precipitate was observed", "setting": "TA98 strain; TA98 strain, ±S9", "result": "not less than 250 µg per well"}, {"measurement": "genotoxicity test result", "setting": "TA98 strain; TA98 strain, ±S9, colonies did not reach twice negative control", "result": "negative"}]}]}
